Test results: paper PMC4007590, “Development of an oligonucleotide-based fluorescence assay for the identification of tyrosyl-DNA phosphodiesterase 1 (TDP1) inhibitors” (Analytical Biochemistry, 2014)

Amino acid sequences for entries named in this document (tags omitted). Residues count along the entry.
UniProt Q9NUW8, 149-608 limits assumed: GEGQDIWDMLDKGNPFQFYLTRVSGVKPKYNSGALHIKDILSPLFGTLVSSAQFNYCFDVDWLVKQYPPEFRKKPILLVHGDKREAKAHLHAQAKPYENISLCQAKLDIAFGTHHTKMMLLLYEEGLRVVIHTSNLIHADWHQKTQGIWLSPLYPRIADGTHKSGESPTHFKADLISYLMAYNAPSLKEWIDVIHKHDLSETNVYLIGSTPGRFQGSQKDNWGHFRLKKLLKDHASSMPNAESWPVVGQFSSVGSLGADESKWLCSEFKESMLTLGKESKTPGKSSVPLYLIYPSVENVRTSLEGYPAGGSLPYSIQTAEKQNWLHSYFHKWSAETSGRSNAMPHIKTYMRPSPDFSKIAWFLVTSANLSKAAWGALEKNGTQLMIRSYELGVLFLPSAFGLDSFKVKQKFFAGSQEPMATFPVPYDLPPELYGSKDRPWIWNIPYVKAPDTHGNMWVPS

Molecular target: T1, tyrosyl-DNA phosphodiesterase 1 (TDP1) (Homo sapiens, UniProt Q9NUW8)
T1 construct: catalytic domain of human TDP1
Test: Gyrasol fluorescence quench assay, FITC-phosphotyrosyl […]mer oligonucleotide substrate, recombinant TDP1
Type: biochemical

## O=C(O)C1=CC(=C(c2ccc(O)c(C(=O)O)c2)c2ccc(O)c(C(=O)O)c2)C=CC1=O [aurintricarboxylic acid]
  IC50: 22 nM
